Numbering of substitutions follows the chain as printed.
T1: biotinylated CRH (Homo sapiens, UniProt P06850)
T1 construct: purchased GL Biochem 784751
T1 sequence (P06850 154-194): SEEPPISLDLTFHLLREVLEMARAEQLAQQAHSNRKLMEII

B1: PR301777: Series 5 anti-CRH mAb from immunized wildtype mice, human IgG1 wildtype Fc (antibody)
heavy: EMKLEESGGGLVQPGGSMKLSCVASGFTFSNYWMNWVRQSPEKGLEWVAEIRLKSNNYATHYAESVKGRFTISRDDSKSGVYLQMNNLGAEDTGIYYCTVGTLVYWGQGTLVTVSAASTKGPSVFPLAPSSKSTSGGTAALGCLVKDYFPEPVTVSWNSGALTSGVHTFPAVLQSSGLYSLSSVVTVPSSSLGTQTYICNVNHKPSNTKVDKKV[human IgG1 Fc not listed]
light: DIVLTQSPASLAVSLGQRATISCRASQSVSTSTYNYMHWFQQKPGQPPKLLIKFASNLESGVPARFSGSGSGTDFTLNIHPVEEEDTATFYCQHSWEIPYTFGGGTKLEIKRTVAAPSVFIFPPSDEQLKSGTASVVCLLNNFYPREAKVQWKVDNALQSGNSQESVTEQDSKDSTYSLSSTLTLSKADYEKHKVYACEVTHQGLSSPVTKSFNRGEC
B2: PR006146: ΔPTM variant of Series 1 mAb PR004290; HCDR2 54DA55, LCDR1 36DS37 (antibody)
heavy: EVQLVESGGVLVQPGGSLRLSCAASGFTFSSYWMTWVRQAPGKGLEWVANIKQDASEKYYVDSVKGRFTISRDNAKNSLFLQMNSLRAEDTAVYYCARTLIFDYWGQGTLVTVSSASTKGPSVFPLAPSSKSTSGGTAALGCLVKDYFPEPVTVSWNSGALTSGVHTFPAVLQSSGLYSLSSVVTVPSSSLGTQTYICNVNHKPSNTKVDKKV[human IgG1 Fc not listed]
light: DIVMTQSPLSLPVTPGEPASISCRSSQSLLHSTGYDSLEWYLQKPGQSPQLLIYLGSNRASGVPDRFSGSGSGTDFTLKISRVEAEDVGIYYCMQTLQTPITFGQGTRLEIKRTVAAPSVFIFPPSDEQLKSGTASVVCLLNNFYPREAKVQWKVDNALQSGNSQESVTEQDSKDSTYSLSSTLTLSKADYEKHKVYACEVTHQGLSSPVTKSFNRGEC
B3: PR006148: ΔPTM variant of Series 1 mAb PR004290; HCDR2 54DA55, LCDR1 36NP37 (antibody)
heavy: B2 heavy
light: B2 light with D36N, S37P
B4: PR005657: ΔPTM variant of Series 1 mAb PR004290; HCDR2 54DA55, LCDR1 36NS37 (antibody)
heavy: B2 heavy
light: B2 light with D36N
B5: PR006147: ΔPTM variant of Series 1 mAb PR004290; HCDR2 54DA55, LCDR1 36HS37 (antibody)
heavy: B2 heavy
light: B2 light with D36H
B6: PR006149: ΔPTM variant of Series 1 mAb PR004290; HCDR2 54DA55, LCDR1 36SS37 (antibody)
heavy: B2 heavy
light: B2 light with D36S
B7: PR006151: ΔPTM variant of Series 1 mAb PR004290; HCDR2 54DS55, LCDR1 36HS37 (antibody)
heavy: B2 heavy with A55S
light: B2 light with D36H
B8: PR006150: ΔPTM variant of Series 1 mAb PR004290; HCDR2 54DS55, LCDR1 36DS37 (antibody)
heavy: B2 heavy with A55S
light: B2 light
B9: PR006153: ΔPTM variant of Series 1 mAb PR004290; HCDR2 54DS55, LCDR1 36SS37 (antibody)
heavy: B2 heavy with A55S
light: B2 light with D36S

Molecular target: T1, biotinylated CRH
Experiment: Affinity determination with Octet
Assay type: binding
Conditions: not given
Description: Octet® Red 96e was used for affinity measurement. Octet® running buffer was prepared by diluting kinetics buffer 10× (Fortebio, Cat #18-1105) in PBS according to the manufacturer's instructions. Two columns of SA sensors (Fortebio, Cat #18-5019) were hydrated in running buffer for 10 mins, one for ligand capturing and the other for reference. Antibodies were 2-fold diluted and added into a 96-well plate. 30 nM biotinylated CRH (GL Biochem, Cat #784751) was captured by the first column of SA sensors for 20 seconds, while reference sensors were dipped into buffer wells. After a 60-second baseline step, sensors were dipped into analyte and buffer wells successively, with the association and dissociation time of 180 seconds and 800 seconds, respectively. Sensors were regenerated in glycine pH1.5 (Cytiva, Cat #BR-1003-54) before the next cycle. […] Signals of reference wells and reference sensors were subtracted by selecting “Double reference” before data fitting.

kdis [s⁻¹] | kon [M⁻¹ s⁻¹] | Molecule
3.48e-07 | – | B1
4.84e-05 | 445000 | B2
5.42e-05 | – | B3
4.67e-05 | – | B4
6.96e-05 | 489000 | B5
7.78e-05 | 487000 | B6
8e-05 | 500000 | B7
5.66e-05 | 555000 | B8
8.36e-05 | 487000 | B9

System: mouse CRHR2
Experiment: CRH-induced luciferase reporter blocking assay, CHO-CRE-mCRHR2 cells
Assay type: cell-based
Conditions: CHO-CRE-mCRHR2 cells, 5 nM CRH
Description: To create CHO-CRE-hCRHR1, -hCRHR2, -mCRHR1, and -mCRHR2 reporter cell lines, pcDNA3.1-hCRHR1, -hCRHR2, -mCRHR1, and -mCRHR2 were introduced into CHO-CRE cells established above by electroporation as described above. Selection antibiotics hygromycin at 500 μg/ml and G418 at 1,000 μg/ml were employed. Individual established stable cell lines were characterized by both CRH and forskolin stimulation. […]
(§1) Cells were digested by trypsin-EDTA (Life technologies, Cat #:12604-013), centrifuged at 1,000 rpm for 5 min, resuspended in growth medium, counted using a cell counter, seeded at a concentration of 5,000 cells per 100 μl in 96-well flat plates, and incubated overnight. 50 μl of 4× serially diluted antibodies was added (8 points, 1/4 diluted by growth medium) to plates containing CHO-CRE-hCRHR1 cells, and 50 μl of 4×CRH (4× is 2 nM, final is 0.5 nM) was added. Similarly, 4×CRH (4× is 0.4 nM, final is 0.1 nM) was added to CHO-CRE-hCRHR2 cells and CHO-CRE-mCRHR1 cells, and 4×CRH (4× is 20 nM, final is 5 nM) was added to CHO-CRE-mCRHR2 cells. Next, plates were incubated 4-6 hours at 37° C. in a CO2 incubator. 60 μl of culture medium was removed, to which was added 60 μl of Bio-Glo luciferase, followed by incubation for 10 min at RT. Plates were read in a luciferase plate reader (EnVision, PerkinElmer).

IC50 [µM] | Molecule
0.00327 | B1
0.0107 | B2
0.00471 | B3
0.00816 | B4
0.0182 | B5
0.0155 | B6
0.023 | B7
0.0046 | B8
0.0192 | B9

System: human CRHR2
Experiment: CRH-induced luciferase reporter blocking assay, CHO-CRE-hCRHR2 cells
Assay type: cell-based
Conditions: CHO-CRE-hCRHR2 cells, 0.1 nM CRH
Description: To create CHO-CRE-hCRHR1, -hCRHR2, -mCRHR1, and -mCRHR2 reporter cell lines, pcDNA3.1-hCRHR1, -hCRHR2, -mCRHR1, and -mCRHR2 were introduced into CHO-CRE cells established above by electroporation as described above. Selection antibiotics hygromycin at 500 μg/ml and G418 at 1,000 μg/ml were employed. Individual established stable cell lines were characterized by both CRH and forskolin stimulation.
Activated GPCR proteins increase production of the intracellular cAMP. CHO-CRE-human CRHR1 stable clone 11 was generated by introduction of pcDNA3.1-human CRHR1 under the selection of G418 and hygromycin. Human CRHR1 expression in CHO-CRE-hCRHR1 Clone 11 was confirmed by flow cytometry (data not shown). To further validate that the cell line was functional, CHO-CRE-hCRHR1 Clone 11 cells were treated with forskolin and CRH peptide. […] Subsequently CHO-CRE-hCRHR2 Clone 32, -mCRHR1 Clone 22, and -mCRHR2 Clone 8 cell lines were established using similar methodology and validated with CRH treatment (data not shown).
Blocking CRHR1 by small molecules or neutralization of CRH peptide can reduce luciferase expression if the CRH-CRHR1 system works in CHO-CRE-hCRHR1 cells. Antalarmin, a small molecule CRHR1 antagonist, blocked CRH-mediated luciferase expression in CHO-CRE-hCRHR1 Clone 11 (data not shown). Furthermore, sheep anti-CRH polyclonal antibody reduced CRH-mediated luciferase expression in these cells (data not shown). Likewise, sheep anti-CRH polyclonal antibody blocked CRH-mediated luciferase expression in CHO-CRE-hCRHR2, CHO-CRE-mCRHR1, and CHO-CRE-mCRHR2 cells (data not shown).
as §1

IC50 [µM] | Molecule
0.00143 | B1
0.017 | B2
0.00611 | B3
0.0163 | B4
0.0378 | B5
0.0249 | B6
0.0142 | B7
0.0146 | B8
0.0314 | B9

— patent publication US20260042834A1, “ANTI-CORTICOTROPIN-RELEASING HORMONE ANTIBODIES AND POLYCYSTIC OVARY SYNDROME” (HBM ALPHA THERAPEUTICS, INC., priority 2022, published 2026)
